# Measured values: PMC4811774
# Target: Toc75 POTRA-His (protein fragment encompassing all three Toc75 POTRA domains and a C-terminal hexahistidine tag) (Arabidopsis thaliana) (UniProt Q9STE8)
# Experiment: pull-down; solid phase binding: increasing amounts of POTRA-His immobilised on Ni-NTA resin, incubated with in vitro translated 35S-labelled proteins in HMK buffer (50 mM Hepes-KOH pH 7.5, 2 mM MgCl2, 40 mM KOAc) with 10 mM imidazole and 0.1% Triton X-100, 30 min, 23°C; phosphorimaging
substance,measurement,value
[35S]SSU (from UniProt P10795 55-180) (natural protein),percent of added radiolabeled protein associated with the resin,< 10%
